US10155733B2, “N-aralkylcarbonyl-piperazine and -homopiperazine compounds and personal care compositions comprising the same” (Conopco, Inc., priority 2015, dated 2018)

The chains behind the UniProt entries cited, without tags or fusion partners.
UniProt P20309, whole entry: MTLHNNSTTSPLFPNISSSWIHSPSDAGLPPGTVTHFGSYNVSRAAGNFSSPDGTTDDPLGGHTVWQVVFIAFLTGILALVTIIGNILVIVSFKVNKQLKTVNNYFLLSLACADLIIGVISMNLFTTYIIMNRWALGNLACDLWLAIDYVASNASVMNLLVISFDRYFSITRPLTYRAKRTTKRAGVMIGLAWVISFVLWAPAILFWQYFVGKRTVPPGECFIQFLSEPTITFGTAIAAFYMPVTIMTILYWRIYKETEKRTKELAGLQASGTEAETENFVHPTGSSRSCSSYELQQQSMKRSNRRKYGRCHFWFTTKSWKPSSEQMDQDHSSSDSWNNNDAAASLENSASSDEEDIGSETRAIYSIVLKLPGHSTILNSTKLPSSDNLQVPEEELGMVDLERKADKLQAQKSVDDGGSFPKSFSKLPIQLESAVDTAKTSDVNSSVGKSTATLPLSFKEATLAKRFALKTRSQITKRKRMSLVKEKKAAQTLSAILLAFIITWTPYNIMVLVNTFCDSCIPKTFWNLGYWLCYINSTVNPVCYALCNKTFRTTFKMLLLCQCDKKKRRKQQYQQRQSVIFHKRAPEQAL

Molecular target: human M3 receptor (Homo sapiens (Human), UniProt P20309)
Experiment: Muscarinic 3 receptor binding assay (3H-scopolamine displacement)
Procedure: The muscarinic 3 receptor binding assay was adapted from Perkin Elmer. […] Atropine (Sigma-Aldrich, St. Louis, Mo.) was used as a positive control. […] The reaction mixtures were then added to matrix 96-well GFC filtration microtiter plates that had been previously pretreated with 0.5% polyethylimine (100 μL) for 4 h and filtered. The binding reactions were terminated by filtering through the GFC plates and washing & filtering with ice-cold phosphate saline buffer (5×100 μL). Once the filters were dry, microscint scintillation cocktail (100 μL) was added to each well, allowed to sit for 20 min and the plates analyzed using a TopCount scintillation counter. […] Curve fitting of % inhibition versus concentration using Excell software allowed determination of IC50 values for test compounds.

O=C(CCc1ccccc1)N1CCN(C(=O)C(O)(c2ccccc2)C2CCCC2)CC1 (stereo not shown) [Compound 13]
IC50: 1.4 µM
